The kinase profiling compilation of Christmann-Franck et al. (2016)

Chains of the proteins cited; added tags and fusions are not shown. Lines headed by an entry give the natural chain unless they say otherwise; changes in a name come on top.
UniProt P49841: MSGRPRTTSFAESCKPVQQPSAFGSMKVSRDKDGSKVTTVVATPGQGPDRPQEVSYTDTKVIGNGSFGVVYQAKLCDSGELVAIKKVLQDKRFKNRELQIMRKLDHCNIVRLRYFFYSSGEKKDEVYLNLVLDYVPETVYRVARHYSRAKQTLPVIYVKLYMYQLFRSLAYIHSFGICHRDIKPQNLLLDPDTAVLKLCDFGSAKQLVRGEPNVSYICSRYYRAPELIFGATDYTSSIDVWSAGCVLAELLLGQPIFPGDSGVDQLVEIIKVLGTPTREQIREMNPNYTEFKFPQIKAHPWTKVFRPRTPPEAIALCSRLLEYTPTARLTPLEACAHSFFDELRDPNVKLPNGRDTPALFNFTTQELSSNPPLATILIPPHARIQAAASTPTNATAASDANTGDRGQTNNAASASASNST
UniProt Q02156: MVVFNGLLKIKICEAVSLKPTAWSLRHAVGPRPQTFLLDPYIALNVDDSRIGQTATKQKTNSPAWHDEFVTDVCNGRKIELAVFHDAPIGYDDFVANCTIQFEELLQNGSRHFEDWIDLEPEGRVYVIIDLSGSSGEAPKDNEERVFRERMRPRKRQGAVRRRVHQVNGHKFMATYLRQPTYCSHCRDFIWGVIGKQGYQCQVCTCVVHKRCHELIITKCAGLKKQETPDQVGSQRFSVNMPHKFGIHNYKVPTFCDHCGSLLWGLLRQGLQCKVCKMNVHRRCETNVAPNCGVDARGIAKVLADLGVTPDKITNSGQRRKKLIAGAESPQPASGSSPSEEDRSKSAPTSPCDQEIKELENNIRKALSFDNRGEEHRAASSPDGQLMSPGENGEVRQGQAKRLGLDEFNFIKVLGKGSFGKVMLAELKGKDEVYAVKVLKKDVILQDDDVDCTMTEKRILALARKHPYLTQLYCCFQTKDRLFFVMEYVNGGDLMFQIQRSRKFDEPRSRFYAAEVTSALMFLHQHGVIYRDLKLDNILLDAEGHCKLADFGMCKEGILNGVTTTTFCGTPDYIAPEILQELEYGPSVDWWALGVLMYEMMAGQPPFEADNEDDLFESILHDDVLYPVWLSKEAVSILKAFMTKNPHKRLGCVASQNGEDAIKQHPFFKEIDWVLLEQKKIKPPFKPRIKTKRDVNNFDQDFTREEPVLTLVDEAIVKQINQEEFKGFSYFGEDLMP
UniProt O15530: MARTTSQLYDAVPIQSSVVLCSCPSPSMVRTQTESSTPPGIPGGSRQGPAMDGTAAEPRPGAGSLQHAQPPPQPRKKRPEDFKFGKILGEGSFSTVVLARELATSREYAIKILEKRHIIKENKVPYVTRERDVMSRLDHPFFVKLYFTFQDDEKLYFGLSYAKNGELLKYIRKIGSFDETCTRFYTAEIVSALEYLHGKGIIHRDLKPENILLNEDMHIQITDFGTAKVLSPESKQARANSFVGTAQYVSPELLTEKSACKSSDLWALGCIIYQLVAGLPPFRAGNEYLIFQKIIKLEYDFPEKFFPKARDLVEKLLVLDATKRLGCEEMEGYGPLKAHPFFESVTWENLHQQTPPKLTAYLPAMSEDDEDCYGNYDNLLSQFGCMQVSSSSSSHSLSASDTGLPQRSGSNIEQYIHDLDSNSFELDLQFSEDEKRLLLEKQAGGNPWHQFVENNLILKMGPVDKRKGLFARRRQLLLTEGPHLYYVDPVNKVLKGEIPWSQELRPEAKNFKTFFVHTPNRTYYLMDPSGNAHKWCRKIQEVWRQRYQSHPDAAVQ
UniProt Q86Z02: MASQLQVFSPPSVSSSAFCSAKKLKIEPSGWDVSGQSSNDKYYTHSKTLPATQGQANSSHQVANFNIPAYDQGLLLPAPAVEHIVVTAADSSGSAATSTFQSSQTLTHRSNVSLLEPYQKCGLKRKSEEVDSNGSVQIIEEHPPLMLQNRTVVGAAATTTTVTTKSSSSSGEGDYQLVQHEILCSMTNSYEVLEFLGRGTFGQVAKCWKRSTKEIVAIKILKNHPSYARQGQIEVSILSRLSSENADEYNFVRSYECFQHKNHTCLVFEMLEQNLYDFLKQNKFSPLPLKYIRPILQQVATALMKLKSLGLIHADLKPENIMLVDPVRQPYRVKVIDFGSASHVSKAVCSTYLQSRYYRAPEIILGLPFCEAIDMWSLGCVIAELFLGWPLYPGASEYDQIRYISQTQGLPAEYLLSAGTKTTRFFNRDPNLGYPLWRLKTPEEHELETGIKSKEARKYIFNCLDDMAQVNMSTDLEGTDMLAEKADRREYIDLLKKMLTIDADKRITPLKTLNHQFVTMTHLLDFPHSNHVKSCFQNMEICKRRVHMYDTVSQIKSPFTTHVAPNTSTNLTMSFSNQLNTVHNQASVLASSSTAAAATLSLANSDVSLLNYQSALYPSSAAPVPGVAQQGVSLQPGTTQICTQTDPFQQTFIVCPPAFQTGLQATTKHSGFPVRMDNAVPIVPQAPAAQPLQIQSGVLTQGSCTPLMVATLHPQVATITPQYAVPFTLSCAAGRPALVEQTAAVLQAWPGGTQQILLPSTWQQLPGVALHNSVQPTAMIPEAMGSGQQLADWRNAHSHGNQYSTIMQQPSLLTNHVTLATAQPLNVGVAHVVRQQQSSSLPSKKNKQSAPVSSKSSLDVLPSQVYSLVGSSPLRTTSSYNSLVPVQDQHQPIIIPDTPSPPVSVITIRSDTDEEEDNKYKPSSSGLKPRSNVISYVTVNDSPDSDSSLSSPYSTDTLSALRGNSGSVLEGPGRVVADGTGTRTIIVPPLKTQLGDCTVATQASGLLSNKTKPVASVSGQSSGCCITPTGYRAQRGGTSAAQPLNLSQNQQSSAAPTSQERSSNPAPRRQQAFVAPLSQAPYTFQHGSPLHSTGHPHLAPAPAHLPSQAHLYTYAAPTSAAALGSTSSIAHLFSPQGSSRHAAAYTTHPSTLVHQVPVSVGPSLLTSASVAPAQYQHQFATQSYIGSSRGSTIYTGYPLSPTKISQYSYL
UniProt P43403: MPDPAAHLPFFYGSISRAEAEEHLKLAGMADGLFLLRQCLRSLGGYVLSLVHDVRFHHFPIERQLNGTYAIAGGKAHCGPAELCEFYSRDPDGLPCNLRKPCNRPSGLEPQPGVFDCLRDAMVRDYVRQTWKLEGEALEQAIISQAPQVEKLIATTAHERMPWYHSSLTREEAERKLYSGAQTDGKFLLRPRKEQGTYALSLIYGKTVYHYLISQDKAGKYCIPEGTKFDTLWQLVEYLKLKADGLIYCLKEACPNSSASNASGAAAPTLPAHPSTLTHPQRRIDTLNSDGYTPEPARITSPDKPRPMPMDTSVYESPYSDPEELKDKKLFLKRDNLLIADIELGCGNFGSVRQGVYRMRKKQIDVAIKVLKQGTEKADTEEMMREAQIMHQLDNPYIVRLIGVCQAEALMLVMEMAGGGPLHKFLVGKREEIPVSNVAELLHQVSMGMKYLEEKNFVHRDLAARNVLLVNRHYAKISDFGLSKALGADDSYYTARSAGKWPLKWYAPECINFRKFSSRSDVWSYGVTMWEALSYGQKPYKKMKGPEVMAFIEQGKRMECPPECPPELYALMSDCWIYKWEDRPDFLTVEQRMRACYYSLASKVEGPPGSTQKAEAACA
UniProt P11362, whole entry, looked up: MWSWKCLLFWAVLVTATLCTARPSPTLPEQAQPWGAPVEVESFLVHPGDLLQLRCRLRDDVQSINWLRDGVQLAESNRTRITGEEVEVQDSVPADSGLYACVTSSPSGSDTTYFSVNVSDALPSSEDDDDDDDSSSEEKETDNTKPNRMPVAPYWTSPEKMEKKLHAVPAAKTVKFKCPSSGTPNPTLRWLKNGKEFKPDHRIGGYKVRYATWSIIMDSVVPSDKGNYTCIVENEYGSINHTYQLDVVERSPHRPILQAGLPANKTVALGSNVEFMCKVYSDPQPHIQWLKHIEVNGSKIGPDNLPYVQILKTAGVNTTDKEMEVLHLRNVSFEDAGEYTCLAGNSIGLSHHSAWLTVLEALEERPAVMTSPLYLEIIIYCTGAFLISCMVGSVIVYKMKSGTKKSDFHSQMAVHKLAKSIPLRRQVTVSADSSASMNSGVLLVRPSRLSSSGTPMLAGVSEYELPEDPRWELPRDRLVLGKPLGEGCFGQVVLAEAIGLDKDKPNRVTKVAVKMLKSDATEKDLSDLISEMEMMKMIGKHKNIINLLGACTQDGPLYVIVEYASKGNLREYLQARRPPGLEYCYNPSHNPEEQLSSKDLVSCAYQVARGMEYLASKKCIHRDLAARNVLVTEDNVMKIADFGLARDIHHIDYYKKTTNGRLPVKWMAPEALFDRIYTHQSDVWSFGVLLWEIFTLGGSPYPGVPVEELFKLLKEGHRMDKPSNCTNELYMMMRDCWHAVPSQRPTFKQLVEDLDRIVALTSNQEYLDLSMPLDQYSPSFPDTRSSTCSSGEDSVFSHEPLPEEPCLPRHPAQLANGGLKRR
UniProt P15735: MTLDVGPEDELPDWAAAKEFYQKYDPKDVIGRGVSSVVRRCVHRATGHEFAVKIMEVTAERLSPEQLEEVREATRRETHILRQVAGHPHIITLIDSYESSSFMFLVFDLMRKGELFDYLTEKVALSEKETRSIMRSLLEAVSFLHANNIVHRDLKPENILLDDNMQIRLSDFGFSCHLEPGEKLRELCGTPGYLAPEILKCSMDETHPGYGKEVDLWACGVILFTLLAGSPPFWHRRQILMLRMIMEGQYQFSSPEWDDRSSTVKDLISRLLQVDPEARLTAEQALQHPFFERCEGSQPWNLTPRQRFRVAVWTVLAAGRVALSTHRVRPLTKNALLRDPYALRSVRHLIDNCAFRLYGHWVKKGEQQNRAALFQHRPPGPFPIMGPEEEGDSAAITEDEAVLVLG
UniProt Q16513: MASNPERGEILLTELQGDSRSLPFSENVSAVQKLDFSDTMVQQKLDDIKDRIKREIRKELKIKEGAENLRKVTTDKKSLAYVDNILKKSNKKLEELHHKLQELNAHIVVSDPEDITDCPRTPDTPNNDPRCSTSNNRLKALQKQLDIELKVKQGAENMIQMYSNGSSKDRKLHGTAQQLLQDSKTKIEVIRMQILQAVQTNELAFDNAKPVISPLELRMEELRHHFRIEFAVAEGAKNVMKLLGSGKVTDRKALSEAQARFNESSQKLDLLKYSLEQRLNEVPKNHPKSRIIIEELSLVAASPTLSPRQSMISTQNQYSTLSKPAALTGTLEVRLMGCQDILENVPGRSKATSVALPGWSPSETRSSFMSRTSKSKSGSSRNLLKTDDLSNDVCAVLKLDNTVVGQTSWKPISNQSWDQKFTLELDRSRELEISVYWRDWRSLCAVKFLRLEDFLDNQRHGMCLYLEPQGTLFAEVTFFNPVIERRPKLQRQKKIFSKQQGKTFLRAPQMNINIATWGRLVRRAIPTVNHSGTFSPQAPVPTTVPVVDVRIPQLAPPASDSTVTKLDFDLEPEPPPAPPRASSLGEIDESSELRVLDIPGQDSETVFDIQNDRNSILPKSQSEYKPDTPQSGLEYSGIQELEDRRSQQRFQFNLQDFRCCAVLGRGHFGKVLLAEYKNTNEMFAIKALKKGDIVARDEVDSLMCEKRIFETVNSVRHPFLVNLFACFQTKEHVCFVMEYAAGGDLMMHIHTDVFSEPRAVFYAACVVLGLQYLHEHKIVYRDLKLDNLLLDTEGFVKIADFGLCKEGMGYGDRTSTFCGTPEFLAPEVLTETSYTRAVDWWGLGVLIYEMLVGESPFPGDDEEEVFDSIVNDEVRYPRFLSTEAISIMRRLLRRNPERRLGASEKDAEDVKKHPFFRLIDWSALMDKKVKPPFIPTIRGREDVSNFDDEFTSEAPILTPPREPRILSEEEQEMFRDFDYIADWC
UniProt Q16288, whole entry, looked up: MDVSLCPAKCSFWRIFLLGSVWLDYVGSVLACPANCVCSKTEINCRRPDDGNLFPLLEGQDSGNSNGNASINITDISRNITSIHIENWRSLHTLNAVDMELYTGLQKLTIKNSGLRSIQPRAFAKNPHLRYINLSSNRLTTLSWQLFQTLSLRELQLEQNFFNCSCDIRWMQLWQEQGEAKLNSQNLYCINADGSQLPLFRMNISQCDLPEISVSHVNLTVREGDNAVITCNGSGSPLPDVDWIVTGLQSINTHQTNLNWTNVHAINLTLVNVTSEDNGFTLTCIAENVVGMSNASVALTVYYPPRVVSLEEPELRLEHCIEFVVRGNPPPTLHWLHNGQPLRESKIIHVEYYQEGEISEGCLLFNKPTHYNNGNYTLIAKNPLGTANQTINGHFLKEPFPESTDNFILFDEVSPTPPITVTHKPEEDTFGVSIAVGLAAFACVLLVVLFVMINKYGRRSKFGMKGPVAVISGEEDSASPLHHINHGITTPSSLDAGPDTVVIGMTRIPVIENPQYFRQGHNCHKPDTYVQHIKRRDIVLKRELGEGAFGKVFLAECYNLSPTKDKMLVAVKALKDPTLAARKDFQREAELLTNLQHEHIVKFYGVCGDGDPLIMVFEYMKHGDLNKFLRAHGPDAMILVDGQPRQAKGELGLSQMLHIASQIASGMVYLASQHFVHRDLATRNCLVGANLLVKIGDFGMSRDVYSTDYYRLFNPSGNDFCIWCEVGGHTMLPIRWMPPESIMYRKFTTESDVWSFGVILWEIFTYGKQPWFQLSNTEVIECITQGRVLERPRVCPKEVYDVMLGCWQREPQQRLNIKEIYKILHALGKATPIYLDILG

Experiments:
Assay in all cases: radiometric filter-binding kinase assay, Kinase HotSpot
Details in all cases: compound 0.5 µM; ATP 10 µM
MAPKAPK5 (human) = MAPKAPK5 (human) (UniProt Q8IW41)
GSK3B (human) = GSK3B (human) (UniProt P49841)
MAP2K2 (human) = MAP2K2 (human) (UniProt P36507)
CSNK1G3 (human) = CSNK1G3 (human) (UniProt Q9Y6M4)
SRPK3 (human) = SRPK3 (human) (UniProt Q9UPE1)
DAPK3 (human) = DAPK3 (human) (UniProt O43293)
CHUK (human) = CHUK (human) (UniProt O15111)
PRKCE (human) = PRKCE (human) (UniProt Q02156)
HIPK2 (human) = HIPK2 (human) (UniProt Q9H2X6)
MAP4K2 (human) = MAP4K2 (human) (UniProt Q12851)
FGFR4 (human) = FGFR4 (human) (UniProt P22455)
MAP3K9 (human) = MAP3K9 (human) (UniProt P80192)
ERBB2 (human) = ERBB2 (human) (UniProt P04626)
PDPK1 (human) = PDPK1 (human) (UniProt O15530)
TBK1 (human) = TBK1 (human) (UniProt Q9UHD2)
MST1R (human) = MST1R (human) (UniProt Q04912)
IGF1R (human) = IGF1R (human) (UniProt P08069)
[1] = biological target: TYK2 JH1 catalytic (human) (UniProt P29597)
GRK6 (human) = GRK6 (human) (UniProt P43250)
HIPK1 (human) = HIPK1 (human) (UniProt Q86Z02)
RPS6KA5 KD2 (human) = RPS6KA5 KD2 (human) (UniProt O75582)
AKT2 (human) = AKT2 (human) (UniProt P31751)
ZAP70 (human) = ZAP70 (human) (UniProt P43403)
FGFR1 (human) = FGFR1 (human) (UniProt P11362)
MAPK10 (human) = MAPK10 (human) (UniProt P53779)
TEC (human) = TEC (human) (UniProt P42680)
MAPK3 (human) = MAPK3 (human) (UniProt P27361)
MAP4K4 (human) = MAP4K4 (human) (UniProt O95819)
GRK5 (human) = GRK5 (human) (UniProt P34947)
PHKG2 (human) = PHKG2 (human) (UniProt P15735)
RET (human) = RET (human) (UniProt P07949)
CSNK2A1 (human) = CSNK2A1 (human) (UniProt P68400)
PRKCZ (human) = PRKCZ (human) (UniProt Q05513)
IKBKB (human) = IKBKB (human) (UniProt O14920)
PKN2 (human) = PKN2 (human) (UniProt Q16513)
PLK1 (human) = PLK1 (human) (UniProt P53350)
CSNK1G2 (human) = CSNK1G2 (human) (UniProt P78368)
IRAK4 (human) = IRAK4 (human) (UniProt Q9NWZ3)
ITK (human) = ITK (human) (UniProt Q08881)
MAP4K5 (human) = MAP4K5 (human) (UniProt Q9Y4K4)
NTRK3 (human) = NTRK3 (human) (UniProt Q16288)
RPS6KA2 KD1 KD2 (human) = RPS6KA2 KD1 KD2 (human) (UniProt Q15349)

CO[C@H]1[C@@H](OC)C[C@H](C)[C@@H](OC)C2=CC(=O)C=C(NC(=O)/C(C)=C\C=C/[C@H](OC)[C@@H](OC(N)=O)/C(C)=C\[C@@H]1C)C2=O
residual activity (MAPKAPK5 (human)): 95.9%
residual activity (GSK3B (human)): 98.7%
residual activity (MAP2K2 (human)): 101%
residual activity (CSNK1G3 (human)): 95.2%
residual activity (SRPK3 (human)): 99.6%
residual activity (DAPK3 (human)): 98.9%
residual activity (CHUK (human)): 99.9%
residual activity (PRKCE (human)): 98.3%
residual activity (HIPK2 (human)): 102%
residual activity (MAP4K2 (human)): 120%
residual activity (FGFR4 (human)): 105%
residual activity (MAP3K9 (human)): 105%
residual activity (ERBB2 (human)): 102%
residual activity (PDPK1 (human)): 102%
residual activity (TBK1 (human)): 101%
residual activity (MST1R (human)): 103%
residual activity (IGF1R (human)): 104%
residual activity [1]: 102%
residual activity (GRK6 (human)): 106%
residual activity (HIPK1 (human)): 106%
residual activity (RPS6KA5 KD2 (human)): 98.2%
residual activity (AKT2 (human)): 94.4%
residual activity (ZAP70 (human)): 102%
residual activity (FGFR1 (human)): 93.1%
residual activity (MAPK10 (human)): 88.7%
residual activity (TEC (human)): 147%
residual activity (MAPK3 (human)): 90.6%
residual activity (MAP4K4 (human)): 92%
residual activity (GRK5 (human)): 105%
residual activity (PHKG2 (human)): 100%
residual activity (RET (human)): 95.7%
residual activity (CSNK2A1 (human)): 102%
residual activity (PRKCZ (human)): 86.8%
residual activity (IKBKB (human)): 94.2%
residual activity (PKN2 (human)): 100%
residual activity (PLK1 (human)): 99.5%
residual activity (CSNK1G2 (human)): 97.5%
residual activity (IRAK4 (human)): 105%
residual activity (ITK (human)): 102%
residual activity (MAP4K5 (human)): 109%
residual activity (NTRK3 (human)): 117%
residual activity (RPS6KA2 KD1 KD2 (human)): 94.2%
